Experimental data as given in paper PMC4979595, “Pilot PET Study to Assess the Functional Interplay Between ABCB1 and ABCG2 at the Human Blood–Brain Barrier” (Clinical Pharmacology and Therapeutics, 2016).

Protein sequences, listed by entry. Tags and fused reporters are not part of them.
UniProt P08183, whole entry: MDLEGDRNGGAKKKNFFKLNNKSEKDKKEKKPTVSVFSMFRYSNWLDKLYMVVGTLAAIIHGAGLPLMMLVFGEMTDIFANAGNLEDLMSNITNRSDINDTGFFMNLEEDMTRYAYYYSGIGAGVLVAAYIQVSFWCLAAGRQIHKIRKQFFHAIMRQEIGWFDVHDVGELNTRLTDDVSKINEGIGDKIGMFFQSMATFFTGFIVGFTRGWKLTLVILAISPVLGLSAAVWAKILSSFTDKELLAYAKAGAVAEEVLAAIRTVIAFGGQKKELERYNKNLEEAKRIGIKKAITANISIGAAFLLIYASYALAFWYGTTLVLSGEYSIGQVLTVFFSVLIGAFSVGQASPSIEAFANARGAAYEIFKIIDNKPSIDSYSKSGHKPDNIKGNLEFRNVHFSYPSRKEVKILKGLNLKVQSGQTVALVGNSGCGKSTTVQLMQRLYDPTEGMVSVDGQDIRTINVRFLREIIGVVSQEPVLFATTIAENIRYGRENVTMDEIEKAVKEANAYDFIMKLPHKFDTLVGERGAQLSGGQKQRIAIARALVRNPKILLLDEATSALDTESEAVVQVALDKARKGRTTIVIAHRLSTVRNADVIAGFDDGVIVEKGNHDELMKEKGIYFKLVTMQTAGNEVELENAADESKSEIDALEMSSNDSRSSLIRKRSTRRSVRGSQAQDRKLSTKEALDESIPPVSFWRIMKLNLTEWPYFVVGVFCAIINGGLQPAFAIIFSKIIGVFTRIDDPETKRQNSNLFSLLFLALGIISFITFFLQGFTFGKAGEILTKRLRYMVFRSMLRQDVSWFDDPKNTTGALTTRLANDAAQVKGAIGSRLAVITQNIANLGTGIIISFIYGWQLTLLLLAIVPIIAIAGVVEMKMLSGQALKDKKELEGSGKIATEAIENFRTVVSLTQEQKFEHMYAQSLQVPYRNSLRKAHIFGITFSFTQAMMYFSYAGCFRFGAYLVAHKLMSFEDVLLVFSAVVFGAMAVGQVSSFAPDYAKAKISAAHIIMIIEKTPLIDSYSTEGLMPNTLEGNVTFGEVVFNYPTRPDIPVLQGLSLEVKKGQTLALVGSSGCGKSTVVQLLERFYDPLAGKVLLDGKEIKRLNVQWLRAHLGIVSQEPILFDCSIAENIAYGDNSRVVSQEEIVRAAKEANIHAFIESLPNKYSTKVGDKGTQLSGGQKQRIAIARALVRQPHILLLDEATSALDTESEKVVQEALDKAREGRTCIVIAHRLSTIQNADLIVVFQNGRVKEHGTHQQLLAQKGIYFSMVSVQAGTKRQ

Legend:
[1] = tested on: Abcb1a/b; design: method as in PMID 22828996, PMID 23305710; settings: transporter knockout mice; cited from earlier work
[2] = target: ABCB1 versus ABCG2 (Homo sapiens, UniProt P08183); experiment: in vitro; settings: mdck, IC50 for inhibition of ABCB1 transport lower than for inhibition of ABCG2 transport

Structure (SMILES)	increase in brain distribution in Abcb1a/b^(‐/‐) mice as compared with wildtype mice [1]	selectivity ratio at 120 min [2]
COc1cc2c(cc1OC)CN(CCc1ccc(NC(=O)c3cc(OC)c(OC)cc3NC(=O)c3cnc4ccccc4c3)cc1)CC2 [[^11C]tariquidar]	1.9 fold	
COc1cc2c(cc1OC)CN(CCc1ccc(NC(=O)c3cc(OC)c(OC)cc3NC(=O)c3cnc4ccccc4c3)cc1)CC2 [tariquidar]		28
